Reference: BindingDB's records for 16621537

Amino acid sequences for entries named in this document (tags omitted). A change or cut given only in a name is not applied to a line headed by its entry.
UniProt P43166: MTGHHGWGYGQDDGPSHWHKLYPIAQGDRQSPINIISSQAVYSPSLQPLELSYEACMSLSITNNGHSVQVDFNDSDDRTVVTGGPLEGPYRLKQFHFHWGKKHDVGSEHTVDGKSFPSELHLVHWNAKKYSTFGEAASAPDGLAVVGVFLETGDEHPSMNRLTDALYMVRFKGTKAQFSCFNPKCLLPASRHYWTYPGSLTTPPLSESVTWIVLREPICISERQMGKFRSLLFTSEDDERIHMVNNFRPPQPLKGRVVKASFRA

Molecular target: Carbonic anhydrase 7 (Homo sapiens, UniProt P43166)

[N-]=[N+]=[N-]
Ki: 1410 µM
